Assay results taken from ChEMBL document CHEMBL2177078, “New positron emission tomography (PET) radioligand for imaging σ-1 receptors in living subjects” (J Med Chem, 2012).

Organism: Rattus norvegicus
Experiment: Selectivity ratio of Ki for rat Sigma2 receptor to Ki for rat Sigma1 receptor

CCCc1ccc2c(c1)sc(=O)n2CCN1CCCCCC1
Ratio Ki: > 1000
